## AlphaSeq binding of Ab-14 light chain variants to a spike HR2 peptide

Source: Li et al. 2023 (doi:10.1038/s41467-023-39022-2), MIT Lincoln Laboratory and A-Alpha Bio; data file from the FLAb repository.

The target is the same throughout: PDVDLGDISGINAS, from the HR2 region of SARS-CoV-2 spike.

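This is the validation round: designs drawn from the data on random variants, tested in the same kind of assay. Group labels follow the data file (Ctrl: baseline library sampled from a position-specific scoring matrix, with some repeated check sequences; Rand: our label for a block that the file lists under HC and that is probably the random mutants of the ten best first-round binders; En: ensemble of fine-tuned language models; GP: Gaussian process model; HC: hill climbing; Gen: genetic algorithm; Gibbs: Gibbs sampling; a sequence that several methods proposed may carry one label only). Affinity was read by AlphaSeq, a pooled yeast mating assay with surface-displayed partners. Binding brings cells together so that they mate, and sequencing counts the barcode pairs among the diploids. Scores were corrected for input abundance and mapped to Kd with protein pairs of known affinity run in the same pool. Each pool was mated in six replicate cultures.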

Ab-14 is the parent antibody, in scFv form: VH, then a (GGGGS)3 linker, then VL. The heavy chain is unchanged in all variants.
VH: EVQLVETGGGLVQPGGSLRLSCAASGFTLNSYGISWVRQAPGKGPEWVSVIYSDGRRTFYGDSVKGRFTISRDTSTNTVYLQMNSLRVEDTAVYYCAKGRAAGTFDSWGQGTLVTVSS
VL: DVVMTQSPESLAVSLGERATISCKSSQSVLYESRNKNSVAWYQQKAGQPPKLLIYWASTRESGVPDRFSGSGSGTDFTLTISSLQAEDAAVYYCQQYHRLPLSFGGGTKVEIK

The parent's light chain CDRs are KSSQSVLYESRNKNSVA, WASTRES, QQYHRLPLS; each variant's own CDRs replace them letter for letter. Kd is apparent (estimated from mating counts) and averaged on the log scale over replicates with a signal. Smaller is tighter. "no signal" marks a missing value. The strain was present, yet no cells mated with the target were sequenced in any replicate, which points to weak or no binding. The range of this assay differs from that of the first round, and the authors advise against merging the two. The authors' rule: three or more of the six replicates give a measured affinity, fewer mean a poor binder. As a blank, each scFv also met three strains without target: over all light chain designs, 4% of these pairings were detected, typically at 430 nM and seldom below 38 nM. Also given: how often the same scFv was detected with the empty control strains.

CDR-L1,CDR-L2,CDR-L3,group,apparent Kd,seen in,control signals
MFSQLTYTGSRARNAVA,QAETRVN,QQYHHLPLI,En_HC,140 nM,6 of 6,2 of 18
KLSQSVLYESRNKNSVA,EASTREM,QQYHRLPLS,GP_Gen,530 pM,6 of 6,2 of 18
QFHSTMAGDQRNVHSIA,NATAAVP,QYYFRLPLS,En_Gibbs,8.2 nM,6 of 6,2 of 18
ILSQMLLMAGNKHNSVA,QANYRES,QQYHRLPLS,En_HC,21 nM,6 of 6,0 of 18
KVSQQGLYGSRNANSVA,NADTREQ,QQYHRLPLS,GP_Gibbs,520 pM,6 of 6,1 of 18
KSPQSVVFESRRKNSVA,WASTREA,QQYHRLPLS,Ctrl,190 nM,1 of 6,0 of 18
HMRMECYQYDNYGKAVA,HANQRHN,QQYSRLPFS,En_Gibbs,52 nM,5 of 6,2 of 18
KLSQSVLYESRNKNSVA,WASTRES,SAYHRLPLS,Ctrl,350 nM,4 of 6,1 of 18
LSSQSVLYESRNKNSVA,WASTRYS,QEYHRLPLS,Ctrl,no signal,0 of 6,0 of 18
KSSSSVLYETRNKNSVA,KASTRES,QEYHRLPLS,Ctrl,62 nM,6 of 6,1 of 18
KLESRQYHFGADHQSIA,DAHISMN,QQYMHLPFT,En_Gibbs,5.8 nM,6 of 6,1 of 18
MLSELVKMGSRNTNSVA,DNSTRGS,QQYDRLPLS,En_HC,6.8 nM,6 of 6,1 of 18
MSSQSVEYEDFNKNSVA,WASTRED,QQYHRLPLS,Ctrl,94 nM,4 of 6,0 of 18
KSSQSVLYESLNKNAVA,WASTRES,QGYHRLPLW,Ctrl,no signal,0 of 6,0 of 18
ALQQKGATLHEARQSIA,HSDTRAA,QQYSTLPLA,En_Gibbs,4.9 nM,6 of 6,0 of 18
KQSQVYLYESRNKNSVA,GASTRES,QQYHRLPLS,GP_HC,880 pM,6 of 6,0 of 18
KLAQSVLYESRNKNSVA,EASTREV,QQYHRLPLS,GP_Gen,210 pM,6 of 6,0 of 18
KLGDMVHTESRNHNSIA,DMRTRES,QQYYRLPLS,En_HC,510 pM,6 of 6,4 of 18
KSLQSTLYESRNKNSVA,HASTRED,QQYHRLPLS,GP_HC,1.4 nM,6 of 6,1 of 18
TISQVMNTLTRHGNNVA,DLQEREE,QQYTRLPLS,En_Gen,150 nM,1 of 6,0 of 18
KSSQPVLYESRNKDSVA,WASTRES,QQVHRLPLS,Ctrl,230 nM,4 of 6,0 of 18
HISQMWMLESYKKNNVA,EESTRED,QSYFRLPLS,En_HC,15 nM,6 of 6,1 of 18
KSPQSELYESRNKNSVA,EASTRES,QQYHRLPLS,GP_Gen,2.0 nM,6 of 6,0 of 18
KIGATLNTLYEKKNNVA,DLVVREN,QQYHRLPLS,En_Gen,2.6 nM,6 of 6,0 of 18
KDSQSVLYESRNKNSVA,NASTRES,QQYHRLPLS,Ctrl,1.6 nM,6 of 6,2 of 18
HSSPSEPYESRNKNSVA,NASTREE,QDYHRLPLS,GP_HC,930 pM,6 of 6,0 of 18
KISQMTRVGATHSNSIA,EEVTRAK,QQYHRLPLA,En_Gen,59 nM,5 of 6,0 of 18
KLRFSTLYESRNKNSVA,EASTRES,QQYHRLPLS,GP_HC,370 pM,6 of 6,0 of 18
TISMVMNHMTREKNNVA,NMDMRED,QQYDRLPLS,En_Gen,540 pM,6 of 6,0 of 18
DMTVQFNGASKIQNSVA,HGVEKID,QQYSRLPLA,En_Gibbs,1.1 nM,6 of 6,2 of 18
KLSQSVLYESRNSNSVA,NASTRES,QDYHRLPLS,GP_Gen,1.6 nM,6 of 6,0 of 18
MLSDLVKMGSRNYNSVA,DNSTRGS,QQYDRLPLS,En_HC,210 nM,5 of 6,1 of 18
KFSQSVLYESRNKNSVA,NASTREM,QQYHRLPLS,GP_Gen,1.0 nM,6 of 6,0 of 18
KIGMTLNQLMQKKNNVA,DLVTREN,QQYHRLPLS,En_Gen,1.1 nM,6 of 6,0 of 18
KVSEFMRGLMKIKNSIA,DNVTRNN,QQYDRLPLS,En_Gen,250 nM,5 of 6,0 of 18
KLPQSWLYESRNKNSVA,QASTRES,QQYHRLPLS,GP_Gen,470 pM,6 of 6,1 of 18
NFSQMVSTGQTLRNSVA,HASTRFN,QQYHRLPLI,En_HC,210 nM,5 of 6,1 of 18
MISDTGLHDSRMENSVA,NNSTRES,QQYHRLPLS,En_HC,44 nM,1 of 6,0 of 18
KLSPSVLGMWRNSNSVA,NASTRES,QQYHRLPLS,GP_Gibbs,960 pM,6 of 6,0 of 18
KSSQSVLYESRVKNSVA,SASTRES,QQYHRLPLS,Ctrl,4.9 nM,6 of 6,3 of 18
KLSQSVWMESRNKNSVA,EASTRES,QQYHRLPLS,GP_Gen,2.5 nM,6 of 6,1 of 18
KVSQSVLMLSRNKNSVA,DNSTSGS,QQYHRLPLS,En_HC,16 nM,6 of 6,1 of 18
KLSNMADYEDRNKNSVA,SASTRES,QQYHRLPLS,GP_Gibbs,860 pM,6 of 6,2 of 18
KSDQSVLYTSRNKNGVA,KASTRES,QQYDRLPLL,Ctrl,110 nM,1 of 6,0 of 18
KISYMGEYFSTNHSSIA,QASTREE,QQYHRLPLS,En_HC,23 nM,6 of 6,0 of 18
KLRQVTGYESFNKNSVA,QTSTRES,QDYDRLPLS,En_HC,310 nM,3 of 6,0 of 18
KLQMLELYESRWCNSVA,QASTRES,QQYHRLPLS,GP_Gibbs,210 nM,3 of 6,1 of 18
KIAATVLYESGTANSVA,QNSTRES,QQYHRLPLS,En_HC,220 nM,6 of 6,1 of 18
KSSQSVLYESRNKNSVA,WASIRFS,QQYARLPLS,Ctrl,no signal,0 of 6,1 of 18
KLSIFHQVESINKSNVA,EMVTREN,QQYDRLPLS,En_HC,110 nM,2 of 6,2 of 18
QLEVFPLQGMSTTQSIA,DASHRTE,QQYSRLPLV,En_Gibbs,650 pM,6 of 6,1 of 18
MLSDLMKYGSRNKNPIA,NASTREY,QQYHRLPLE,En_HC,200 nM,6 of 6,1 of 18
KLSQSVMYESRNKNSVA,SASTRES,QQYHRLPLS,GP_Gen,940 pM,6 of 6,1 of 18
KMSNSVLYESRNKNSVA,WASTRES,QQYHKLPLS,Ctrl,5.5 nM,6 of 6,0 of 18
KLPQSWLYESRNKNSVA,SASTRES,QQYHRLPLS,GP_Gen,3.2 nM,6 of 6,2 of 18
KFSQSDLYESRNKNSVA,NASTRES,QQYHRLPLS,GP_Gen,2.2 nM,6 of 6,0 of 18
MVYQAAMMGGVARNSIA,NATMRPD,QQYHRLPLM,En_Gen,3.5 nM,6 of 6,2 of 18
KLSTETYGLTGHTSSIA,HEEIRWA,QQYHKLPLI,En_Gibbs,11 nM,6 of 6,1 of 18
KIGDTLNQQMTKRNNVA,DLVTREN,QQYFRLPLS,En_Gen,730 pM,6 of 6,0 of 18
SMQFYTENFAEWGQNIA,DVSATTA,QQYHRLPLA,En_Gibbs,60 nM,5 of 6,2 of 18
KSSSSVLYEDLNKNSIA,TASTRES,QQYHRLPLS,Ctrl,3.6 nM,6 of 6,0 of 18
KFMYSVLYEERNQNSVA,NASQREQ,QQYHRLPLS,GP_Gibbs,3.8 nM,6 of 6,2 of 18
KSSQSVLYESENKNSVA,GASTRES,QQYHRLPLS,Ctrl,1.3 nM,6 of 6,1 of 18
KSSQSVLYESRNKNSVA,FASTRES,QQYHRLHLS,Ctrl,no signal,0 of 6,2 of 18
HSSPSVLYESRNKNNVA,NASTRES,QQYHRLPLS,Rand,380 pM,6 of 6,0 of 18
KLSQSELYESRNANNVA,NASTRES,QQYHRLPLS,GP_Gen,290 pM,6 of 6,2 of 18
KLGGEQQSSTYEMDNVA,DVNTTYE,QHYSRLPLT,En_Gibbs,240 nM,3 of 6,0 of 18

The 11 strongest on average among those seen in every replicate, once more:

CDR-L1,CDR-L2,CDR-L3,group,apparent Kd,seen in,control signals
KLAQSVLYESRNKNSVA,EASTREV,QQYHRLPLS,GP_Gen,210 pM,6 of 6,0 of 18
KLSQSELYESRNANNVA,NASTRES,QQYHRLPLS,GP_Gen,290 pM,6 of 6,2 of 18
KLRFSTLYESRNKNSVA,EASTRES,QQYHRLPLS,GP_HC,370 pM,6 of 6,0 of 18
HSSPSVLYESRNKNNVA,NASTRES,QQYHRLPLS,Rand,380 pM,6 of 6,0 of 18
KLPQSWLYESRNKNSVA,QASTRES,QQYHRLPLS,GP_Gen,470 pM,6 of 6,1 of 18
KLGDMVHTESRNHNSIA,DMRTRES,QQYYRLPLS,En_HC,510 pM,6 of 6,4 of 18
KVSQQGLYGSRNANSVA,NADTREQ,QQYHRLPLS,GP_Gibbs,520 pM,6 of 6,1 of 18
KLSQSVLYESRNKNSVA,EASTREM,QQYHRLPLS,GP_Gen,530 pM,6 of 6,2 of 18
TISMVMNHMTREKNNVA,NMDMRED,QQYDRLPLS,En_Gen,540 pM,6 of 6,0 of 18
QLEVFPLQGMSTTQSIA,DASHRTE,QQYSRLPLV,En_Gibbs,650 pM,6 of 6,1 of 18
KIGDTLNQQMTKRNNVA,DLVTREN,QQYFRLPLS,En_Gen,730 pM,6 of 6,0 of 18